## AlphaSeq binding of Ab-95 light chain variants to a spike HR2 peptide

Target peptide (SARS-CoV-2 spike, HR2 region): PDVDLGDISGINAS

Ab-95 is the parent antibody, in scFv form: VH, then the linker GGGGSGGGGSGGGGS, then VL. The heavy chain is unchanged in all variants.
VH: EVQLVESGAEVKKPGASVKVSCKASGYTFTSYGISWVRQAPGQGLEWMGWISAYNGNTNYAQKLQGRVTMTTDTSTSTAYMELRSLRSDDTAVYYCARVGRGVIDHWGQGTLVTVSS
VL: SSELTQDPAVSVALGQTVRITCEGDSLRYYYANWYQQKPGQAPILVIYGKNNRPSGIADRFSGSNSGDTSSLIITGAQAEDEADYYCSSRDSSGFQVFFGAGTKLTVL

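In library AAYL52, one, two or three CDR residues were substituted; doubles and triples were drawn at random. AlphaSeq pools MATa yeast showing the antibodies with MATalpha yeast showing the peptide. Mating (16 h, 30 °C) was followed by selection of diploids and sequencing of their barcodes. A regression on co-assayed BCL2-family reference pairs converts the normalised counts of each replicate to an apparent Kd. The assay was run in three technical replicates.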

Substitutions are numbered in sequence along the VL above, starting at 1 (not Kabat).
Each Kd is an estimate from the mating assay, the geometric mean of the replicates in which the pair was seen; lower is stronger.
An entry "no signal" has no value in the source: the pair was not observed among the diploids in any replicate. This suggests poor binding but is not conclusive.
The list is sorted by this average, lowest first, undetected variants last.
As a blank, each scFv also met three strains without target: over library AAYL52, 28% of these pairings were detected, typically at 8.2 µM and seldom below 800 nM.
In this assay the parent's reference entry averaged 200 nM; its copy inside this library read 180 nM.

{"changes": "E23S Y29H N33F", "apparent Kd": "20 nM", "detected": "3 of 3"}
{"changes": "Y30H S92W F95N", "apparent Kd": "37 nM", "detected": "3 of 3"}
{"changes": "Y29I S55W S92Y", "apparent Kd": "56 nM", "detected": "3 of 3"}
{"changes": "Y29I Y30N F95L", "apparent Kd": "89 nM", "detected": "3 of 3"}
{"changes": "S92T F95R", "apparent Kd": "170 nM", "detected": "3 of 3"}
{"changes": "Y30F Y31H N52F", "apparent Kd": "310 nM", "detected": "3 of 3"}
{"changes": "S88F F95K", "apparent Kd": "350 nM", "detected": "2 of 3"}
{"changes": "R28S S55R", "apparent Kd": "380 nM", "detected": "3 of 3"}
{"changes": "E23Y G24R Q96H", "apparent Kd": "400 nM", "detected": "3 of 3"}
{"changes": "N52R F95Q V97M", "apparent Kd": "1.4 µM", "detected": "3 of 3"}
{"changes": "Y29P S55R V97T", "apparent Kd": "1.6 µM", "detected": "2 of 3"}
{"changes": "Y29V S92L S93P", "apparent Kd": "1.6 µM", "detected": "2 of 3"}
{"changes": "Y29H S92V Q96V", "apparent Kd": "2.4 µM", "detected": "3 of 3"}
{"changes": "R53M S55G F98R", "apparent Kd": "2.8 µM", "detected": "3 of 3"}
{"changes": "K50V S88I", "apparent Kd": "3.0 µM", "detected": "2 of 3"}
{"changes": "E23S A32L P54S", "apparent Kd": "3.2 µM", "detected": "2 of 3"}
{"changes": "D25E G49Q F95W", "apparent Kd": "3.6 µM", "detected": "3 of 3"}
{"changes": "N52S S89M D91A", "apparent Kd": "5.2 µM", "detected": "2 of 3"}
{"changes": "S89I S92W", "apparent Kd": "6.7 µM", "detected": "2 of 3"}
{"changes": "Y29N R53D G94I", "apparent Kd": "8.5 µM", "detected": "3 of 3"}
{"changes": "R53C S93Y G94K", "apparent Kd": "9.3 µM", "detected": "1 of 3"}
{"changes": "Y31K N51H F95M", "apparent Kd": "9.5 µM", "detected": "3 of 3"}
{"changes": "K50Y P54I F95V", "apparent Kd": "13 µM", "detected": "2 of 3"}
{"changes": "D25F L27I R90Q", "apparent Kd": "14 µM", "detected": "2 of 3"}
{"changes": "N52T R53I P54F", "apparent Kd": "45 µM", "detected": "3 of 3"}
{"changes": "K50Y R53G S55C", "apparent Kd": "91 µM", "detected": "1 of 3"}
{"changes": "G24F L27H A32E", "apparent Kd": "330 µM", "detected": "1 of 3"}
{"changes": "N52T R53F Q96T", "apparent Kd": "no signal", "detected": "0 of 3"}
{"changes": "D25W S88Q F98Q", "apparent Kd": "no signal", "detected": "0 of 3"}
{"changes": "Y29N A32H G94A", "apparent Kd": "no signal", "detected": "0 of 3"}
{"changes": "N51P G94K F98L", "apparent Kd": "no signal", "detected": "0 of 3"}

The first 4 variants above that were never detected:

| changes | apparent Kd | detected |
|---|---|---|
| N52T R53F Q96T | no signal | 0 of 3 |
| D25W S88Q F98Q | no signal | 0 of 3 |
| Y29N A32H G94A | no signal | 0 of 3 |
| N51P G94K F98L | no signal | 0 of 3 |

Values reported by Engelhart et al. 2022, doi:10.1038/s41597-022-01779-4 (FLAb copy).